Test results published in US10202345B2, “Substituted azaspiro(4.5)decane derivatives” (priority 2014, dated 2019).

By UniProt entry, the sequences of proteins in these tests, tags left out. Where a name states a change or a piece, a line headed by the entry shows the natural chain unless it says otherwise.
UniProt P41146: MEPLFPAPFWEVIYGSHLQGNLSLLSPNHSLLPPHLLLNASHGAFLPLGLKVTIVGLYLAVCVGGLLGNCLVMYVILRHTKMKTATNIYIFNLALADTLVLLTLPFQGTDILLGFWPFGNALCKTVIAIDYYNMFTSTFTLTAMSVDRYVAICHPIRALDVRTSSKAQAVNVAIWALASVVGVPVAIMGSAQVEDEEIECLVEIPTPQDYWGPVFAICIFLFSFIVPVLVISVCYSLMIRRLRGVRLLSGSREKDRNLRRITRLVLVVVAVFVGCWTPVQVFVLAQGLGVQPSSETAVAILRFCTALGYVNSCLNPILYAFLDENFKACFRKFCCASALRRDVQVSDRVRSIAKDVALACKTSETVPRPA
UniProt P35372, whole entry, looked up: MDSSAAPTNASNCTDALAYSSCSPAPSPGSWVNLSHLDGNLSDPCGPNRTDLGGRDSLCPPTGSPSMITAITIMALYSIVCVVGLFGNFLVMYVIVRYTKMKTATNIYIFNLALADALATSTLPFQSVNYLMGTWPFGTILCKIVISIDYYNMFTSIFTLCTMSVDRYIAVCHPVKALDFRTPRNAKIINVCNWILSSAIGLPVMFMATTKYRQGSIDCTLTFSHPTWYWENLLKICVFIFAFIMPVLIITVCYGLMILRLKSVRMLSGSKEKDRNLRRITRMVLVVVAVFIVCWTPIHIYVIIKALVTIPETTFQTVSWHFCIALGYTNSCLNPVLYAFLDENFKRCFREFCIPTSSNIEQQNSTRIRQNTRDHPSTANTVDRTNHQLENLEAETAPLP

Assays:
ORL1 receptor = ORL1 receptor (Homo sapiens, UniProt P41146); assay: ORL1 receptor binding assay with 3H-nociceptin/orphanin FQ (WGA-SPA beads); details: for Ki: read-out: Ki (ORL1) mean, mean; for % inhibition (ORL1) [1 μM]: test concentration 1 μM
human μ opiate receptor = human μ opiate receptor (Homo sapiens, UniProt P35372); assay: μ opiate receptor binding assay with [3H]-naloxone (WGA-SPA beads); details: for Ki: read-out: Ki (μ) mean [μm], mean; for % inhibition (μ) [1 μM]: test concentration 1 μM

Row | Compound | Ki (ORL1 receptor) [µM] | % inhibition (ORL1) [1 μM] (ORL1 receptor) [%] | Ki (human μ opiate receptor) [µM] | % inhibition (μ) [1 μM] (human μ opiate receptor) [%]
1 | CN(C)C1(c2cccs2)CCC2(CCN(CC3(C#N)CCC3)C2)CC1 (stereo not shown) | 0.0032 | 91 | 0.00145 | 99
2 | CCCCC1(N(C)C)CCC2(CCN(C(=O)CC3(OC)CCC3)C2)CC1 (stereo not shown) | 0.03 | 76 | 0.00825 | 97.33
3 | CN(C)C1(c2cccs2)CCC2(CCN(CC3COC3)C2)CC1 (stereo not shown) | 0.0305 | 84.5 | 0.022 | 94.5
4 | CN(C)C1(c2cccs2)CCC2(CCN(C(=O)C3COC3)C2)CC1 (stereo not shown) | 0.0715 | 64 | 0.037 | 92
5 | COC(C)(C)CN1CCC2(CCC(C3CCCC3)(N(C)C)CC2)C1 (stereo not shown) | 0.0205 | 85 | 0.00305 | 98
6 | CN(C)C1(c2ccccc2)CCC2(CCN(C(=O)CCC(C)(C)O)C2)CC1 (stereo not shown) | 0.015 | 90 | 0.00935 | 97.5
7 | COC(C)CN1CC2(CCC(c3cccs3)(N(C)C)CC2)CC1=O (stereo not shown) | 0.0092 | 88.5 | 0.00715 | 97.5
8 | CN(C)C1(c2ccccc2)CCC2(CCN(C(=O)C(C)(C)C#N)C2)CC1 (stereo not shown) | 0.24 | 60.5 | 0.0795 | 90
9 | CCCCN1CCC2(CCC(Cc3ccccc3)(N(C)C)CC2)C1 (single isomer, unassigned) | – | 21.67 | 1110 | 61.5
10 | CN(C)C1(c2ccccc2)CCC2(CCNC2=O)CC1 (stereo not shown) | – | 13 | 1.89 | 34
11 | CN(C)C1(C2CCCC2)CCC2(CC1)CC(=O)N(CCC1COC1)C2 (stereo not shown) | 0.205 | 40 | 0.034 | 87.5
12 | CN1CC2(CCC(C3CCCC3)(N(C)C)CC2)CC1=O (stereo not shown) | 1.38 | 19.5 | – | 67.5
13 | CN(C)C1(c2ccccc2)CCC2(CC1)CC(=O)N(CC1CCC1)C2 (stereo not shown) | 0.0825 | 56.5 | 0.63 | 37
14 | CN(C)C1(C2CCCC2)CCC2(CCN(C(=O)C3COC3)C2)CC1 (stereo not shown) | – | 0.5 | – | 66
15 | CN(C)C1(Cc2ccccc2)CCC2(CCN(CC3CCCC3)C2)CC1 (stereo not shown) | 0.12 | 74.33 | 0.0079 | 100.5
16 | CN(C)C1(c2ccccc2)CCC2(CCN(C(=O)C(C)(C)O)C2)CC1 (stereo not shown) | 0.23 | 46 | 0.082 | 79
17 | COCC1(C(=O)N2CCC3(CCC(c4ccc(C)s4)(N(C)C)CC3)C2)CC1 (stereo not shown) | 0.355 | 23.5 | 0.037 | 92
18 | CC(C)CC(=O)N1CCC2(CCC(c3ccccc3)(N(C)C)CC2)C1 (stereo not shown) | 0.00064 | 95 | 0.00135 | 99.5
19 | CC(C)CCN1CCC2(CCC(C3CCCC3)(N(C)C)CC2)C1 (stereo not shown) | 0.00633 | 91 | 0.00145 | 100
20 | COCCN1CCC2(CCC(c3ccc(C)s3)(N(C)C)CC2)C1 (stereo not shown) | 0.064 | 64.5 | 0.078 | 83.5
21 | CCOC(C)CC(=O)N1CCC2(CCC(c3cccs3)(N(C)C)CC2)C1 (stereo not shown) | 0.0046 | 93 | 0.001 | 101
22 | CNC1(c2cccs2)CCC2(CCN(C(=O)CC3CCC3)C2)CC1 (stereo not shown) | 0.0055 | 96 | 0.0024 | 102.5

Row | Compound | Ki (ORL1 receptor) [µM] | % inhibition (ORL1) [1 μM] (ORL1 receptor) [%] | Ki (human μ opiate receptor) [µM] | % inhibition (μ) [1 μM] (human μ opiate receptor) [%]
23 | CN(C)C1(c2ccccc2)CCC2(CCN(CC3(O)CC3)C2)CC1 (stereo not shown) | 0.035 | 79 | 0.0255 | 92
24 | CNC1(c2cccs2)CCC2(CC1)CC(=O)N(CCC1(OC)CCC1)C2 (stereo not shown) | 0.00935 | 90.5 | 0.0013 | 99
25 | CN(C)C1(c2cccs2)CCC2(CCN(CC3(O)CCC3)C2)CC1 (stereo not shown) | 0.00417 | 94.5 | 0.00475 | 99.5
26 | CN(C)C1(c2ccccc2)CCC2(CC1)CC(=O)N(CC1(C#N)CC1)C2 (stereo not shown) | 0.0018 | 96.5 | 0.0036 | 98
27 | CN(C)C1(c2cccs2)CCC2(CCN(C(=O)CC3CCOCC3)C2)CC1 (stereo not shown) | 0.0098 | 93.5 | 0.0016 | 98.5
28 | CCCCN1CCC2(CCC(c3ccc(C)s3)(N(C)C)CC2)C1 (stereo not shown) | 0.039 | 91 | 0.00815 | 98.5
29 | CC(C)CN1CC2(CCC(c3ccccc3)(N(C)C)CC2)CC1=O (stereo not shown) | 0.00525 | 90.5 | 0.00615 | 98
30 | CN(C)C1(c2ccccc2)CCC2(CCNC2)CC1 (stereo not shown) | 0.057 | 62.5 | 0.215 | 65.5
31 | CN(C)C1(c2cccs2)CCC2(CCN(C(=O)CC(C)(C)C#N)C2)CC1 (stereo not shown) | 0.00225 | 96 | 0.0013 | 98.5
32 | CN(C)C1(c2ccccc2)CCC2(CCN(CC3(C#N)CCC3)C2)CC1 (stereo not shown) | 0.0076 | 92 | 0.0025 | 98
33 | COC(C)(C)CCN1CCC2(CCC(c3ccccc3)(N(C)C)CC2)C1 (stereo not shown) | 0.0073 | 92 | 0.00155 | 100
34 | CN(C)C1(c2cccs2)CCC2(CCN(CC3CCCC3)C2=O)CC1 (stereo not shown) | 1.57 | 20 | 0.145 | 67.5
35 | CN(C)C1(c2cccs2)CCC2(CCN(CC3(O)CC3)C2)CC1 (stereo not shown) | 0.023 | 80 | 0.0108 | 94.5
36 | CCC(=O)N1CCC2(CCC(c3ccc(C)s3)(N(C)C)CC2)C1 (stereo not shown) | 0.15 | 34.5 | 0.125 | 80.5
37 | CC(=O)N1CCC2(CCC(c3ccccc3)(N(C)C)CC2)C1 (stereo not shown) | 0.161 | 43 | 0.275 | 58.5
38 | CN(C)C1(c2cccs2)CCC2(CCNC2=O)CC1 (stereo not shown) | – | 19 | 0.895 | 28
39 | COC1(C(=O)N2CCC3(CCC(c4cccs4)(N(C)C)CC3)C2)CCC1 (stereo not shown) | 0.07 | 87 | 0.00915 | 99
40 | CN(C)C1(c2cccs2)CCC2(CC1)CC(=O)N(CC1(C#N)CC1)C2 (stereo not shown) | 0.00143 | 95.5 | 0.00135 | 99.5
41 | COC(C)(C)CC(=O)N1CCC2(CCC(c3ccccc3)(N(C)C)CC2)C1 (stereo not shown) | 0.0019 | 93 | 0.0018 | 99.5
42 | CN(C)C1(c2ccccc2)CCC2(CCN(C(=O)C3(O)CC3)C2)CC1 (stereo not shown) | 0.185 | 48.5 | 0.0745 | 82.5
43 | CCOCCN1CC2(CCC(c3ccccc3)(N(C)C)CC2)CC1=O (stereo not shown) | 0.00375 | 96 | 0.0043 | 97.5
